Patent US7247440B2, “Method of screening preventives or remedies for obesity” (Takeda Pharmaceutical Company Limited, priority 2001, dated 2007)

Amino acid sequences for entries named in this document (tags omitted). A change or cut given only in a name is not applied to a line headed by its entry.
UniProt P48146: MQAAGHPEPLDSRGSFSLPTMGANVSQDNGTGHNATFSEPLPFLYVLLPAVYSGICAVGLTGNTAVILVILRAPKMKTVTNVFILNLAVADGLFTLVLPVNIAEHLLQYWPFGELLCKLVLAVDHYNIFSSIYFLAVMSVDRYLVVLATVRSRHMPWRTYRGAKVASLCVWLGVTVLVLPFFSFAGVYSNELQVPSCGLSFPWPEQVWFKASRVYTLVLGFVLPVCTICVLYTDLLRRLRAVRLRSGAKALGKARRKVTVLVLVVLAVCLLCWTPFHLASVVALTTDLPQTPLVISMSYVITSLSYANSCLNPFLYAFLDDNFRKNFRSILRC

Key:
GPR7 = target: T1, GPR7 (Homo sapiens, UniProt P48145); test: Intracellular cAMP production suppressing activity in human GPR7-expressed CHO cells; format: cell-based; parameters: expressed in transfected cells; host or cells: membrane fraction of CHO dhfr- cells transfected with pAKKO-Human GPR7; details: for intracellular cAMP production suppressing activity (in words): human GPR7-expressed CHO cells, forskolin
T1 sequence (P48145 1-328): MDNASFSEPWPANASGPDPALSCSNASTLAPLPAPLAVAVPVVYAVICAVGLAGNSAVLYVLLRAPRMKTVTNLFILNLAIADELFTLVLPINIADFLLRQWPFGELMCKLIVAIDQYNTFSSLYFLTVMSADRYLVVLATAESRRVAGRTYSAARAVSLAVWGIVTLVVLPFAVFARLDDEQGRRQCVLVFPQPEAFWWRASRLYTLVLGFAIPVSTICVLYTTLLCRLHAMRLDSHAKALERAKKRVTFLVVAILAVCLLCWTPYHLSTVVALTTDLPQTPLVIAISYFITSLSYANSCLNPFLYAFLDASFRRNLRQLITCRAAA
Method: The human GPR7-expressed CHO cells, which were prepared in REFERENCE EXAMPLE 68 and selected as described in REFERENCE EXAMPLE 69, were seeded on a 24-well plate in 5×10^4 cells/well, followed by incubation for 48 hours. The cells were washed with a MEMα buffer (pH7.4) containing 0.2 mM 3-isobutyl-methylxanthine, 0.05% BSA (bovine serum albumin) and 20 mM HEPES (hereinafter the MEMα buffer (pH7.4) containing 0.2 mM 3-isobutyl-methylxanthine, 0.05% BSA and 20 mM HEPES is referred to as a reaction buffer). Thereafter, 0.5 ml of the reaction buffer was added to the cells, which was then kept warm in an incubator for 30 minutes. The reaction buffer was removed and after 0.25 ml of a fresh reaction buffer was replenished to the cells, a sample solution in DMSO having an appropriate concentration and 0.25 ml of the reaction buffer containing 2 μM of forskolin were added to the cells, followed by reacting at 37° C. for 30 minutes. The reaction was terminated by adding 100 μl of 20% perchloric acid. Next, the reaction mixture was put on ice for an hour to extract intracellular cAMP. The level of cAMP in the extract was determined by cAMP EIA Kit (Amersham Pharmacia Biotech).
Following the method described in REFERENCE EXAMPLE 70, hGPR8L (1-23) (SEQ ID NO:16) or hGPR8L (1-30) (SEQ ID NO:17) was given to the human GPR7-expressed CHO cells in various concentrations to determine the intracellular cAMP production suppressing activity. The results are shown in FIG. 14, wherein the cAMP synthesis suppressing activity is expressed by the value in terms of % of the intracellular cAMP level, which was obtained by subtracting the intracellular cAMP level accumulated where hGPR8L (1-23) or hGPR8L (1-30) was added, from the intracellular cAMP level accumulated where the reaction buffer was added, taking as 100% the intracellular cAMP level obtained by subtracting the intracellular cAMP level accumulated where the reaction buffer was added, from the intracellular cAMP level accumulated where the reaction buffer containing forskolin was added.

GPR8 = GPR8 (Homo sapiens, UniProt P48146); test: Intracellular cAMP production suppressing activity in GPR8-expressed CHO cells; format: cell-based; parameters: expressed in transfected cells; host or cells: CHO dhfr- cells, plasmid pAKKO-GPR8 (clones #17, #41, #46; mainly #17); details: forskolin
Method: The CHL/GPR8 cells produced in REFERENCE EXAMPLE 4 and mock CHO cells were inoculated on a 24-well plate in 5×10^4 cells/well, followed by cultivation for 48 hours. The cells were washed with Hanks' buffer (pH 7.4) containing 0.2 mM 3-isobutyl-methylxanthine, 0.05% BSA and 20 mM HEPES (hereinafter Hanks' buffer (pH 7.4) containing 0.2 mM 3-isobutyl-methylxanthine, 0.05% BSA and 20 mM HEPES is referred to as a reaction buffer). Thereafter, 0.5 ml of the reaction buffer was added to the system, which was kept warm in an incubator for 30 minutes. After the reaction buffer was removed, 0.25 ml of a fresh reaction buffer was added to the cells. Then, 0.25 ml of the reaction buffer containing a sample fluid and 2 μM forskolin was added to the cells followed by reacting at 37° C. for 24 minutes. By adding 100 μl of 20% perchloric acid, the reaction was terminated. The reaction mixture was then allowed to stand on ice for an hour to extract intracellular cAMP. The amount of cAMP in the extract was measured using cAMP EIA kit (Amersham Pharmacia Biotech).
hGPR8L (1-23), which was synthesized in REFERENCE EXAMPLE 12, was brought in contact with the GPR8-expressed CHO cells in various concentrations according to the procedures described in REFERENCE EXAMPLE 5, to assay the intracellular cAMP production suppressing activity. […]

| Structure (SMILES) | intracellular cAMP production suppressing activity (in words) (GPR7) | intracellular cAMP production suppressing activity (in words) (GPR8) | IC50 (GPR7; forskolin-stimulated human GPR7-expressed CHO cells, read-out: 50% inhibitory concentration (IC50) from the cAMP production level) [nM] |
| --- | --- | --- | --- |
| CSCC[C@H](NC(=O)[C@H](CC(C)C)NC(=O)[C@H](CC(C)C)NC(=O)CNC(=O)[C@H](C)NC(=O)[C@H](C)NC(=O)[C@H](CCCNC(=N)N)NC(=O)CNC(=O)[C@@H](NC(=O)[C@@H](NC(=O)[C@H](Cc1c[nH]cn1)NC(=O)[C@H](Cc1ccc(O)cc1)NC(=O)[C@H](CCCNC(=N)N)NC(=O)[C@@H]1CCCN1C(=O)[C@H](CO)NC(=O)[C@H](C)NC(=O)[C@@H](NC(=O)[C@H](Cc1c[nH]cn1)NC(=O)[C@H](CCCCN)NC(=O)[C@H](Cc1ccc(O)cc1)NC(=O)[C@@H](N)Cc1c[nH]c2ccccc12)C(C)C)[C@@H](C)O)C(C)C)C(=O)NCC(=O)N[C@@H](CC(C)C)C(=O)N[C@@H](CCCNC(=N)N)C(=O)N[C@@H](CCCNC(=N)N)C(=O)N[C@@H](CO)C(=O)N1CCC[C@H]1C(=O)N[C@@H](Cc1ccc(O)cc1)C(=O)N[C@@H](CC(C)C)C(=O)N[C@@H](Cc1c[nH]c2ccccc12)C(=O)O [hGPR8L(1–30)] | suppressed the intracellular cAMP production dose-dependently | suppressed the intracellular cAMP production dose-dependently | – |
| CSCC[C@H](NC(=O)[C@H](CC(C)C)NC(=O)[C@H](CC(C)C)NC(=O)CNC(=O)[C@H](C)NC(=O)[C@H](C)NC(=O)[C@H](CCCNC(=N)N)NC(=O)CNC(=O)[C@@H](NC(=O)[C@@H](NC(=O)[C@H](Cc1c[nH]cn1)NC(=O)[C@H](Cc1ccc(O)cc1)NC(=O)[C@H](CCCNC(=N)N)NC(=O)[C@@H]1CCCN1C(=O)[C@H](CO)NC(=O)[C@H](C)NC(=O)[C@@H](NC(=O)[C@H](Cc1c[nH]cn1)NC(=O)[C@H](CCCCN)NC(=O)[C@H](Cc1ccc(O)cc1)NC(=O)[C@@H](N)Cc1c[nH]c2ccccc12)C(C)C)[C@@H](C)O)C(C)C)C(=O)NCC(=O)N[C@@H](CC(C)C)C(=O)O [hGPR8L(1–23)] | suppressed the intracellular cAMP production dose-dependently | suppressed the intracellular cAMP production dose-dependently | 0.025 |
